# Publication PMC4357715, “The beta hairpin structure within ribosomal protein S5 mediates interplay between domains II and IV and regulates HCV IRES function” (Nucleic Acids Research, 2015)
# B1: La protein: recombinant La protein, positive control (protein, UniProt P05455 1-408, looked up)
# Lupus La protein: MAENGDNEKMAALEAKICHQIEYYFGDFNLPRDKFLKEQIKLDEGWVPLEIMIKFNRLNRLTTDFNVIVEALSKSKAELMEISEDKTKIRRSPSKPLPEVTDEYKNDVKNRSVYIKGFPTDATLDDIKEWLEDKGQVLNIQMRRTLHKAFKGSIFVVFDSIESAKKFVETPGQKYKETDLLILFKDDYFAKKNEERKQNKVEAKLRAKQEQEAKQKLEEDAEMKSLEEKIGCLLKFSGDLDDQTCREDLHILFSNHGEIKWIDFVRGAKEGIILFKEKAKEALGKAKDANNGNLQLRNKEVTWEVLEGEVEKEALKKIIEDQQESLNKWKSKGRRFKGKGKGNKAAQPGSGKGKVQFQGKKTKFASDDEHDEHDENGATGPVKRAREETDKEEPASKQQKTENGAGDQ
# System: HCV 3′ UTR
# Test: Direct UV cross-linking of HCV 3′ UTR with recombinant protein
# Assay type: binding, Hepatitis C Virus
# Details: rRPS5 2 and 4 pmol / 4 and 8 pmol
# Protocol: UV cross-linking assay was performed as reported earlier ([17]). In UV cross linking assay α-^32P-labelled HCV IRES RNA (18–383) or HCV 3′ UTR was allowed to form complex with the purified recombinant ribosomal protein S5 (rRPS5) or purified 40S ribosome subunit in binding buffer (5 mM HEPES pH 7.6, 25 mM KCl, 2 mM MgCl2, 3.8% glycerol, 2 mM dithiothreitol, 0.1 mM EDTA) at 30°C for 15 min. These RNA–protein complexes were then irradiated with UV light (254 nm) for 25 min on ice. The excess RNA was digested with RNase A (Sigma) for 30 min at 37°C and UV cross-linked complex was resolved on SDS-polyacrylamide gel, which was dried before it was exposed to the phosphor-Imager cassette. In case of competition UV cross-linking experiments, RNA–protein complex formation was performed in presence of the un-labelled RNAs or peptides.
# Human ribosomal protein S5 was expressed in BL21 DE3 and purified as mentioned earlier ([17]). In brief, Escherichia coli BL21 DE3 cells were transformed with the plasmid pET-28(a)-WTRPS5 or pET-28(a)RPS5-βhpt expressing the N terminally poly(His)‐tagged wild type or mutant human RPS5 protein. Protein expression was induced by 0.4 mM Isopropyl β-D-1-thiogalactopyranoside (IPTG) and incubated at 16°C for 22 h. […]
molecule,measurement,value
B1,binding of recombinant protein to HCV 3′ UTR,able to bind to HCV 3′ UTR
